Values joined by “and” are separate entries in the source; they are usually repeats but may differ in a detail not shown here. Equal entries are not always repeated.
Assay: toxicity, LD50 i.p. (Table 1)
Type: in vivo
Settings: 50 % of the animals died within 24 hours from the administration, 1440 min
Experimental: LD50 is determined for the dose (mg/kg) at which 50 % of the animals died within 24 hours from the administration.
In the following table the results are reported of the toxicity trials relevant to the compounds of the invention.

For “(3-aS-cis)-1,2,3,3a,8,8a- hexahydro 1,3a,8-trimethylpyrrole [2,3-B]-indole 5-ol-2-methyl-1,3 dioxolane carbamate ester [ESE008]”, the LD50 was > 30 mg/kg and < 60 mg/kg.

Source: patent EP0550007A2, “Eseroline derivatives having anticholinesterase activity, a process for their preparation and pharmaceutical compositions containing them” (priority 1991, dated 1993)
